Reference: ChEMBL document CHEMBL3244331, “2,6-Methano-3-benzazocine-11-ropanols. Lack of antagonism between optical antipodes and observation of potent narcotic antagonism by two n-methyl derivatives” (1978)

Experiments:
Rattus norvegicus [1] = test: Narcotic antagonist activity in sc dosed rat assessed as antagonism of phenazocine response by tail flick assay
Mus musculus = test: Narcotic agonist activity in sc dosed mouse by acetylcholine writhing test
Rattus norvegicus [2] = organism: Rattus norvegicus; test: Ratio of nalorphine AD50 to compound AD50 for antagonism of phenazocine response in rat

## C=CCN1CC[C@]23c4c5ccc(O)c4O[C@H]2[C@@H](O)C=C[C@H]3[C@H]1C5
Rattus norvegicus [1]
  AD50: 0.1 mg/kg
Mus musculus
  ED50: 2.8 mg/kg

## CC(C)CCC(C)(O)CC[C@]1(C)[C@H]2Cc3ccc(O)cc3[C@@]1(C)CCN2C (stereo partly specified)
Rattus norvegicus [1]
  AD50: 0.032 mg/kg and 0.02 mg/kg
Rattus norvegicus [2]
  Ratio: 3 and 5
Mus musculus
  ED50: 22 mg/kg and 14 mg/kg

## CO[C@@]12CC[C@@]3(C[C@@H]1[C@](C)(O)C(C)(C)C)[C@H]1Cc4ccc(O)c5c4[C@@]3(CCN1CC1CC1)[C@H]2O5
Mus musculus
  ED50: 0.058 mg/kg

Values joined by “and” are separate entries in the source; they are usually repeats but may differ in a detail not shown here. Equal values may be shown once.
